Source: patent US7390834B2, “Cyanophenoxy carboxylic acid compounds and compositions for delivering active agents” (Emisphere Technologies, Inc., priority 2000, dated 2008)

What was measured:
[1] = Oral delivery of rhGH in rats (serum rhGH immunoassay); settings: oral gavage, compound 200 mg/kg, rhGH 3 mg/kg, volume 1 ml/kg
[2] = Oral delivery of human insulin in rats (serum insulin ELISA); settings: no delivery agent, previous experiments
Protocol: Oral dosing (PO) compositions of delivery agent compound and human zinc insulin (minimum 26 IU/mg available from Calbiochem—Novabiochem Corp, La Jolla, Calif.) were prepared in deionized water. […] The solution was vortexed, then heated (about 37° C.) and sonicated. The pH was adjusted to about 7 to 8.5 with NaOH or HCl.
The typical dosing and sampling protocols were as follows. […] A dosing group of five animals was administered one of the dosing solutions. […] The dosing solution was administered by pressing the syringe plunger.
Serum insulin levels were determined with an Insulin ELISA Test Kit (Kit # DSL-10-1600 from Diagnostic Systems Laboratories, Inc., Webster, Tex.), modifying the standard protocol in order to optimize the sensitivity and linear range of the standard curve for the volumes and concentrations of the samples used in the present protocol. […] The five values for each time point were averaged and the results plotted as serum insulin concentration versus time.

Row | Substance | Peak Serum [rhGH] (ng/ml) ± SD (SE) [1] [ng/mL] | levels of human insulin following oral dosing with human insulin alone [2]
1 | 3-(2-cyanophenoxy) acetic acid [Compound 1] | 0 | –
2 | human insulin | – | no measurable levels
